Values quoted from earlier work in article PMC3776131 (Bioorganic & medicinal chemistry letters, 2013).

Amino acid sequences for entries named in this document (tags omitted). A change or cut given only in a name is not applied to a line headed by its entry.
UniProt P32300, whole entry: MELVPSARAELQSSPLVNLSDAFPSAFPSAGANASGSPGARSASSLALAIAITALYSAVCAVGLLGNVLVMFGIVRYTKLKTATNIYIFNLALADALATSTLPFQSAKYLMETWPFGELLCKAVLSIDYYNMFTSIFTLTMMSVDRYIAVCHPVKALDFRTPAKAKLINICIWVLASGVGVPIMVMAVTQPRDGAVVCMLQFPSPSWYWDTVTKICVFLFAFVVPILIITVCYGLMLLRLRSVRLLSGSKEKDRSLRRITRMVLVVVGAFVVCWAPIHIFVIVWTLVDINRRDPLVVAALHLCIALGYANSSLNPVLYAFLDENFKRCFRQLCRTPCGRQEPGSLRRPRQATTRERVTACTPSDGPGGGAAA

Biological target: δ receptor (Mus musculus, UniProt P32300)
Conditions: cited from earlier work

## H-Dmt-Tic-OH [Compound 8a]
  MVD Ke (δ antagonist activity): 6.55 ± 0.27 nM
